Assay results as given in US8598314B2 (priority 2007, dated 2013).

Test system: plasma carboxypeptidase
Conditions: 37° C., FIG. 8

PYY(3-36)
stability of PYY(3-36) incubated in human plasma (in words): disappearance of PYY(3-36) and an accompanying appearance of PYY(3-35)
